# According to ChEMBL document CHEMBL1129458, “Indole inhibitors of human nonpancreatic secretory phospholipase A2. 3. Indole-3-glyoxamides” (J Med Chem, 1996):
# Target: T1, Phospholipase A2, membrane associated (Homo sapiens, UniProt P14555)
# T1 sequence (P14555 whole entry): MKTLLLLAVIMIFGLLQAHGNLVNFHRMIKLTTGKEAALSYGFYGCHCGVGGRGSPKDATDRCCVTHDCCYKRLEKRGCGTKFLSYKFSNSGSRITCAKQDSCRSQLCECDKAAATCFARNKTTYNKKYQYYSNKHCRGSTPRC
# Assay: Inhibition of human nonpancreatic secretory Phospholipase A2 through DOC/PC assay
# Summary of the method: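 hnps-PLA2 (10 ng per tube; 3 nM) was preincubated with test compound in DMSO in pH 8 Tris buffer with 0.2 M NaCl, 2 mM CaCl2 and fatty-acid-free BSA. The substrate was sonicated mixed micelles (final 3 mM deoxycholate/1 mM PC) with [14C]-palmitoyl-oleoyl-PC. Reactions ran 1 h at 40 °C and were stopped with Dole reagent. Released [14C]oleic acid was extracted with heptane/silica and counted. IC50 was calculated against diluent controls.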
structure (smiles),measurement,value
CCc1c(C(=O)C(N)=O)c2c(OCC(=O)O)cccc2n1Cc1ccccc1 [VARESPLADIB],IC50,7 nM
